Experimental data: patent US7427640B1, “Oil materials comprising dimerdiol ester and cosmetics comprising the ester” (Nippon Fine Chemical Co., Ltd., priority 1999, dated 2008)

How the values were obtained:
[1] = Oxidation stability, Rancimat 676 automatic oils and fats stability test; type: physicochemical
From the text: Index of the oxidation stability was expressed by the time until conductance of the trapped water started rising. […] Index of the oxidation stability was expressed by the time until conductance of the trapped water started rising.

[2] = Dispersability for pigment, red iron oxide; type: physicochemical; settings: amount of tested sample per 100 g of the pigment at flow point
Method: Dispersability for pigment, titanium dioxide, red iron oxide and organic pigment Red No. 202, of the esters obtained in Examples 28-35, polybutene (PARLEAM 18, manufactured by NOF CORP.) and di-isostearyl malate (Cosmol 222, manufactured by Nissin Oil Mills Ltd.) were measured. Titanium dioxide, red iron oxide and organic pigment used in the measurement are PIGMOLITE CR-50, PIGMOLITE BENGARA No. 211 and Red 202, respectively, manufactured by DAITO KASEI KOGYO Co. Ltd. The dispersability is expressed by amount (g) of the tested sample per 100 g of the pigment at wet point (W.P) and flow point (F.P).

Compound | Index of oxidation stability [1] | Red iron oxide F.P [2]
tocopherol mixture added erucic acid dimerdiol ester [Example 4] | 27 h | –
tocopherol mixture added hydrogenated rosin/erucic acid dimerdiol ester [Example 10] | 26 h | –
tocopherol mixture added long chain branched fatty acid dimerdiol ester [Example 8] | 30 h | –

Continued, values first:

Index of oxidation stability [1] | Red iron oxide F.P [2] | Compound
– | 188 g | CC(C)CCCCCCCCCCCCCCCOC(=O)CC(O)C(=O)OCCCCCCCCCCCCCCCC(C)C (centres unmarked) [di-iostearyl malate, di-isostearyl malate]
48 hrs. or more | – | tocopherol mixture added isostearic acid dimerdiol ester [Example 12]
